“And” between values parts separate entries of the source, which are not always exact repeats. Identical values can stand only once. Like-named read-outs stand apart in the source and are kept apart here.
Legend:
FLT3 [1] = target: T1, FLT3 (Homo sapiens, UniProt P36888); assay: Eurofins/DiscoverX KdELECT, FLT3 kinase IC50; conditions: read-out: FLT3 IC50, 11-point 3-fold dilution, top concentration 10,000 nM
TAF1(2) bromodomain = TAF1(2) bromodomain (Homo sapiens, UniProt P21675); assay: Eurofins/DiscoverX KdELECT, TAF1(2) bromodomain IC50; conditions: read-out: TAF1(2) IC50, 11-point 3-fold dilution, top concentration 10,000 nM
TAF1(2) = TAF1(2) (Homo sapiens, UniProt P21675); assay: Eurofins/DiscoverX cell free bromodomain assay, percent control; conditions: for per_control_1000nM TAF1(2): 1000 nM compound; for per_control_10000nM TAF1(2): 10000 nM compound
FLT3 [2] = target: T1, FLT3; assay: Eurofins/DiscoverX cell free kinase assay, percent control; conditions: for per_control_1000nM FLT3: 1000 nM compound; for per_control_10000nM FLT3: 10000 nM compound
FLT3(D835V) = FLT3(D835V) (Homo sapiens, UniProt P36888, D835V); assay: as above; conditions: for per_control_1000nM FLT3(D835V): 1000 nM compound; for per_control_10000nM FLT3(D835V): 10000 nM compound
FLT3(ITD) = assay: as above; conditions: for per_control_1000nM FLT3(ITD): 1000 nM compound; for per_control_10000nM FLT3(ITD): 10000 nM compound
FLT3(ITD,D835V) = assay: as above; conditions: for per_control_1000nM FLT3(ITD,D835V): 1000 nM compound; for per_control_10000nM FLT3(ITD,D835V): 10000 nM compound
FLT3(ITD,F691L) = assay: as above; conditions: for per_control_1000nM FLT3(ITD,F691L): 1000 nM compound; for per_control_10000nM FLT3(ITD,F691L): 10000 nM compound
FLT3_autoinhibited = FLT3_autoinhibited (Homo sapiens, UniProt P36888); assay: as above; conditions: for per_control_1000nM FLT3_autoinhibited: 1000 nM compound; for per_control_10000nM FLT3_autoinhibited: 10000 nM compound
KIT = KIT (Homo sapiens, UniProt P10721); assay: as above; conditions: for per_control_1000nM KIT: 1000 nM compound; for per_control_10000nM KIT: 10000 nM compound
PDGFRB = PDGFRB (Homo sapiens, UniProt P09619); assay: as above; conditions: for per_control_1000nM PDGFRB: 1000 nM compound; for per_control_10000nM PDGFRB: 10000 nM compound
MOLM13 cells = assay: Cell viability, CellTiter Glo, MOLM13; conditions: 72h
DU4475 cells = assay: Cell viability, CellTiter Glo, DU4475; conditions: 72h
HDQP1 cells = assay: Cell viability, CellTiter Glo, HDQP1; conditions: read-out: HDQP1 IC50, individual dose-response curve (CellTiter Glo); 72h, one independent experiment per value
IGROV1 cells = assay: Cell viability, CellTiter Glo, IGROV1; conditions: 72h
[3] = read-out: MOLM13 IC50 (CellTiter Glo), mean of n = 3 independent experiments
[4] = read-out: IGROV1 IC50 (CellTiter Glo), mean of n = 3 independent experiments

The chains behind the UniProt entries cited, without tags or fusion partners. Where a name states a change or a piece, a line headed by the entry shows the natural chain unless it says otherwise. Residues count along the entry.
UniProt P36888, 27-993 limits assumed: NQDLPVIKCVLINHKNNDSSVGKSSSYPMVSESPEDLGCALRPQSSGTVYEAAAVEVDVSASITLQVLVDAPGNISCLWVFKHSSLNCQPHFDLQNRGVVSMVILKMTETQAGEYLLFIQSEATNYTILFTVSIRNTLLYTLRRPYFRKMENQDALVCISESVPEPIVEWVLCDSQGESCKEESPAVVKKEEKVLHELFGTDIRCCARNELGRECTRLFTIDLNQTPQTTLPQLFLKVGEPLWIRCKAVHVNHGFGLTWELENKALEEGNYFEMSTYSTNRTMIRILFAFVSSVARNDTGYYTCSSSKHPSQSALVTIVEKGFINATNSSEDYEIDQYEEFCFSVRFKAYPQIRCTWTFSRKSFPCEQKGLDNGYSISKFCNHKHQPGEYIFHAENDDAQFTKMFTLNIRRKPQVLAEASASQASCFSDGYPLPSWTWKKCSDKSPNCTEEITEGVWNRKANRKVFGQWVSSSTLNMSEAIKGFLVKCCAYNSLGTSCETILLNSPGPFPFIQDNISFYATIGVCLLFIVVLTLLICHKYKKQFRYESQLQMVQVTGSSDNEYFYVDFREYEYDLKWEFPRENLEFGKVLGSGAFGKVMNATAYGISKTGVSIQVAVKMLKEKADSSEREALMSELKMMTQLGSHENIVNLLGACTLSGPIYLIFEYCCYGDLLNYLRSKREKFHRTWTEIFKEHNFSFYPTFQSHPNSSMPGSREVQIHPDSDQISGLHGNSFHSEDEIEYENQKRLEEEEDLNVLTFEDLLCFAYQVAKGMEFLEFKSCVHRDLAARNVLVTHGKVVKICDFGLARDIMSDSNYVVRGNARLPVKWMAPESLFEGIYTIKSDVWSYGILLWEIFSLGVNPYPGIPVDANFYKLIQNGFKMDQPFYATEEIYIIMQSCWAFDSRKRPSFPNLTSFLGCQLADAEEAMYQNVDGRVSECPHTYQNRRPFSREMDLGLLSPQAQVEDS
UniProt P36888, 564-993 limits assumed: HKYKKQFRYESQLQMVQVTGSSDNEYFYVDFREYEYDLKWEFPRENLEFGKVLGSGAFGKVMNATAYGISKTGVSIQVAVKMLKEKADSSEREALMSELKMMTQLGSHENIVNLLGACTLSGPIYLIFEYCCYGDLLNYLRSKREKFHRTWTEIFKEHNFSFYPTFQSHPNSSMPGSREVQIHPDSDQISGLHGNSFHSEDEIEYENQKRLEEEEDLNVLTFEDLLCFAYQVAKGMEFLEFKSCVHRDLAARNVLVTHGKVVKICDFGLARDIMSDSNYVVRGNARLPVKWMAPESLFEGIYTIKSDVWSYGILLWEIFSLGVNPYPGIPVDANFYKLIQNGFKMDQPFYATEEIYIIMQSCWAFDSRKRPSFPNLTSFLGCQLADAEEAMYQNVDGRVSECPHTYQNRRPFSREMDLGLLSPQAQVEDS
UniProt P36888, 27-993 D835V limits assumed: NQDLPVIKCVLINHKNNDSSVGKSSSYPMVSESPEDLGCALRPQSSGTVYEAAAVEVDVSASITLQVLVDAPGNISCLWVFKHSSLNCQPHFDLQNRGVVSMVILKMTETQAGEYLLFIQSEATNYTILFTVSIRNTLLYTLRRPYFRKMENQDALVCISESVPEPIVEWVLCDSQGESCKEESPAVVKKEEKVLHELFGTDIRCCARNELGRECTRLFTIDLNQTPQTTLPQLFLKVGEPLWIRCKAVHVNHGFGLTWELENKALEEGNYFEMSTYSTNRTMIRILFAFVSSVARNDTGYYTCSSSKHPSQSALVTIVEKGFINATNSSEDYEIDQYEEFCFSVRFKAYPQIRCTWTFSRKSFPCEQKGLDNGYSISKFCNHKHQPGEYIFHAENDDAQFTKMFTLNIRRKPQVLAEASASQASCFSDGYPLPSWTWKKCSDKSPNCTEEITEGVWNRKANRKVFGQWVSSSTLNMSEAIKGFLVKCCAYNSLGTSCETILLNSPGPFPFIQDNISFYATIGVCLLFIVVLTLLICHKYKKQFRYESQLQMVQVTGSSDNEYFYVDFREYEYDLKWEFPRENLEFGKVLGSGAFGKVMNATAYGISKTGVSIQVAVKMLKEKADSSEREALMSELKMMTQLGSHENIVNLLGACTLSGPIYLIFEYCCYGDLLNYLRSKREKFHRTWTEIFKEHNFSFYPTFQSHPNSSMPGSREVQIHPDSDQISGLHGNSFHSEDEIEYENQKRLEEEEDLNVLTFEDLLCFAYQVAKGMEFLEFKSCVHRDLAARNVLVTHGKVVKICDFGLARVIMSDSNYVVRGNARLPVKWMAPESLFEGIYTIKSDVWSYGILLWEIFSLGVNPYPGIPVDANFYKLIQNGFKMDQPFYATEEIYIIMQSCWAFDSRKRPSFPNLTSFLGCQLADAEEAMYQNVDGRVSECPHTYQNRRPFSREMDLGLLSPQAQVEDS
UniProt P21675, 1519-1628 limits assumed: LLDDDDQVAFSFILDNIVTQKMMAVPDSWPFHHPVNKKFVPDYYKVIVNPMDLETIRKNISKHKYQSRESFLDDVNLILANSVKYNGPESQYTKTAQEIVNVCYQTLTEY
UniProt P10721, 26-976 limits assumed: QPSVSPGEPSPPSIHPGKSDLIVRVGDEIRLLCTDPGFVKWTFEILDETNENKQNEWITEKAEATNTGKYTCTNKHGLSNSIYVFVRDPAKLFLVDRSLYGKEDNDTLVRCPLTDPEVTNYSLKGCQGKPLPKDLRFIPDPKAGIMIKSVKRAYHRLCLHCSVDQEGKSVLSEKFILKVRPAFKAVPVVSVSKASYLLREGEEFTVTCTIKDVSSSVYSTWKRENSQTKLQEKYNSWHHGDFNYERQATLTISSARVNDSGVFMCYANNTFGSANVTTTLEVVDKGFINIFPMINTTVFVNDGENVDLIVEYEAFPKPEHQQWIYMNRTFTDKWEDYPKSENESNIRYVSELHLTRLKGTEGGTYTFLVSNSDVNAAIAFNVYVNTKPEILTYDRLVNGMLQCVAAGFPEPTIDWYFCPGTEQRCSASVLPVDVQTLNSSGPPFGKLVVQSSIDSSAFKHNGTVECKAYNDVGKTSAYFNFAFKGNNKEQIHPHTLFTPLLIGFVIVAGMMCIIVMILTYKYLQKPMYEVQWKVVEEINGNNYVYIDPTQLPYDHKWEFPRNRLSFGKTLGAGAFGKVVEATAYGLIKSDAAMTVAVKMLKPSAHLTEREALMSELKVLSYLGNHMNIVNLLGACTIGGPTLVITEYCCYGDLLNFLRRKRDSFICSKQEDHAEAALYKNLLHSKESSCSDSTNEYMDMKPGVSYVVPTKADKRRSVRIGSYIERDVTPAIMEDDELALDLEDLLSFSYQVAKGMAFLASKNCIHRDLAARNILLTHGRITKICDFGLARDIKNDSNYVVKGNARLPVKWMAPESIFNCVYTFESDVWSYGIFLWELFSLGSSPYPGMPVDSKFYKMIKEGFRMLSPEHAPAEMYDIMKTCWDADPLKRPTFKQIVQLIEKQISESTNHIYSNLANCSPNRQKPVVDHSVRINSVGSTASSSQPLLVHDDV
UniProt P09619, 33-1106 limits assumed: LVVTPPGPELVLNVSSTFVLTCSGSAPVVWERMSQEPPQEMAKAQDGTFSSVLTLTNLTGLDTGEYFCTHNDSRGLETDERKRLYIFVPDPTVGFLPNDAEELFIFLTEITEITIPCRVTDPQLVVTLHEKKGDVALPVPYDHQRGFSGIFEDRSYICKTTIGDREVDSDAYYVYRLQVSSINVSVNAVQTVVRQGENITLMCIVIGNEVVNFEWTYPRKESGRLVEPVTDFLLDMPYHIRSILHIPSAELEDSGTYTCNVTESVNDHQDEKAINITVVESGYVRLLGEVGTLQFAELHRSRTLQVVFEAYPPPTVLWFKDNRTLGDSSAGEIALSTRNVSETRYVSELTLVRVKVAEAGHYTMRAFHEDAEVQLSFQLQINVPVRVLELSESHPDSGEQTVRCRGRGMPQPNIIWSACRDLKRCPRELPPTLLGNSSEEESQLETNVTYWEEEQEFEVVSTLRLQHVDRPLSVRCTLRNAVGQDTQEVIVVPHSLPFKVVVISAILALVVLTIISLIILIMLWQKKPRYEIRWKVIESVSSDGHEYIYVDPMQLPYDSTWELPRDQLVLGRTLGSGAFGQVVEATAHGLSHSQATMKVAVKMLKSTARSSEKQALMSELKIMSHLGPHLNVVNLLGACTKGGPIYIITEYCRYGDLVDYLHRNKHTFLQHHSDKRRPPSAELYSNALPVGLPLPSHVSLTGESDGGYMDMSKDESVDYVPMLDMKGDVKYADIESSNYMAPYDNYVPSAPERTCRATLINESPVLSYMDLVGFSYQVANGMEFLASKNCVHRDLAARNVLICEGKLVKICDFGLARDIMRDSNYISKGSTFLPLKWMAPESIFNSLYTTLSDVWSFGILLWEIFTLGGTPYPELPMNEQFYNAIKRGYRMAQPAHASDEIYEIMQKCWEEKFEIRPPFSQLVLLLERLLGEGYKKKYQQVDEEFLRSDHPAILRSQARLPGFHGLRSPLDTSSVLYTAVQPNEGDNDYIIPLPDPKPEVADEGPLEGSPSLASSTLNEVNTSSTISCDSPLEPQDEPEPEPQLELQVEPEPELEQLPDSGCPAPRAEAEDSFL

SMILES	IC50 (FLT3 [1]) [µM]	IC50 (TAF1(2) bromodomain) [µM]	per_control_1000nM TAF1(2) (TAF1(2)) [percent control]	per_control_10000nM TAF1(2) (TAF1(2)) [percent control]	per_control_1000nM FLT3 (FLT3 [2]) [percent control]	per_control_10000nM FLT3 (FLT3 [2]) [percent control]	per_control_1000nM FLT3(D835V) (FLT3(D835V)) [percent control]	per_control_10000nM FLT3(D835V) (FLT3(D835V)) [percent control]	per_control_1000nM FLT3(ITD) (FLT3(ITD)) [percent control]	per_control_10000nM FLT3(ITD) (FLT3(ITD)) [percent control]	per_control_1000nM FLT3(ITD,D835V) (FLT3(ITD,D835V)) [percent control]	per_control_10000nM FLT3(ITD,D835V) (FLT3(ITD,D835V)) [percent control]	per_control_1000nM FLT3(ITD,F691L) (FLT3(ITD,F691L)) [percent control]	per_control_10000nM FLT3(ITD,F691L) (FLT3(ITD,F691L)) [percent control]	per_control_1000nM FLT3_autoinhibited (FLT3_autoinhibited) [percent control]	per_control_10000nM FLT3_autoinhibited (FLT3_autoinhibited) [percent control]	per_control_1000nM KIT (KIT) [percent control]	per_control_10000nM KIT (KIT) [percent control]	per_control_1000nM PDGFRB (PDGFRB) [percent control]	per_control_10000nM PDGFRB (PDGFRB) [percent control]	other results
COc1ccc(-c2cc(NC(=O)c3ccc(C(C)(C)C)cc3)n[nH]2)cc1Cl	< 1	> 10	100	81	0.2	0.05	2.4	1.8	0	0	80	23	63	35	5.5	0	0	0	0.25	0	IC50 (MOLM13 cells; [3]): 0.316 µM; IC50 (MOLM13 cells; read-out: MOLM13 IC50, individual dose-response curve (CellTiter Glo), one independent experiment per value, listed as 1245): 0.205 µM and 0.489 µM and 0.255 µM; IC50 (DU4475 cells; read-out: DU4475 IC50, individual dose-response curve (CellTiter Glo), one independent experiment per value, listed as 1245): 25.3 µM and 26.7 µM and > 30 µM; IC50 (HDQP1 cells): > 30 µM; IC50 (IGROV1 cells; [4]): 13.6 µM; IC50 (IGROV1 cells; read-out: IGROV1 IC50, individual dose-response curve (CellTiter Glo), one independent experiment per value, listed as 1245): 16.2 µM and 16.1 µM and 8.7 µM
COc1ccc(-c2cc(NC(=O)c3ccc(C(C)(C)C)cc3)n[nH]2)cc1C	< 1	> 10	88	86	0.2	0.2	2.7	0.6	2.5	0	60	15	77	34	6	0.4	0	0.1	0.15	0.05	IC50 (MOLM13 cells; [3]): 0.406 µM; IC50 (MOLM13 cells; read-out: MOLM13 IC50, individual dose-response curve (CellTiter Glo), one independent experiment per value, listed as 1244): 0.253 µM and 0.623 µM and 0.342 µM; IC50 (DU4475 cells; read-out: DU4475 IC50 (CellTiter Glo), mean of n = 3 independent experiments): 18.8 µM; IC50 (DU4475 cells; read-out: DU4475 IC50, individual dose-response curve (CellTiter Glo), one independent experiment per value, listed as 1244): 15.8 µM and 17.5 µM and 23.2 µM; IC50 (IGROV1 cells; [4]): 8.9 µM; IC50 (IGROV1 cells; read-out: IGROV1 IC50, individual dose-response curve (CellTiter Glo), one independent experiment per value, listed as 1244): 17.5 µM and 7 µM and 2.1 µM

Reference: article PMC11952222, “Development and comparison of single FLT3-inhibitors to dual FLT3/TAF1-inhibitors as an anti-leukemic approach” (PLOS One, 2025)
